From article PMC3961306, “Comparison of the Cancer Gene Targeting and Biochemical Selectivities of All Targeted Kinase Inhibitors Approved for Clinical Use” (PLoS ONE, 2014)

Chains of the proteins cited; added tags and fusions are not shown.
UniProt P28482, whole entry, stated change not applied: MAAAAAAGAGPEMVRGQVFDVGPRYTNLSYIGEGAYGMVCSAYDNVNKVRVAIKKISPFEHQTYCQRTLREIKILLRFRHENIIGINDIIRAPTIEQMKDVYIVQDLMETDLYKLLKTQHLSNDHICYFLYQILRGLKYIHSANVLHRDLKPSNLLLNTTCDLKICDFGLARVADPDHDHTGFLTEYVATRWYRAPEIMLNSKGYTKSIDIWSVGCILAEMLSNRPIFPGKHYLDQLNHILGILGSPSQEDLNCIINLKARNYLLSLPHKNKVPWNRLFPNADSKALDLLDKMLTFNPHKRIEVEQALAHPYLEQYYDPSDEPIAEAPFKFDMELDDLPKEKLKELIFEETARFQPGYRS
UniProt Q9H1R3, whole entry, stated change not applied: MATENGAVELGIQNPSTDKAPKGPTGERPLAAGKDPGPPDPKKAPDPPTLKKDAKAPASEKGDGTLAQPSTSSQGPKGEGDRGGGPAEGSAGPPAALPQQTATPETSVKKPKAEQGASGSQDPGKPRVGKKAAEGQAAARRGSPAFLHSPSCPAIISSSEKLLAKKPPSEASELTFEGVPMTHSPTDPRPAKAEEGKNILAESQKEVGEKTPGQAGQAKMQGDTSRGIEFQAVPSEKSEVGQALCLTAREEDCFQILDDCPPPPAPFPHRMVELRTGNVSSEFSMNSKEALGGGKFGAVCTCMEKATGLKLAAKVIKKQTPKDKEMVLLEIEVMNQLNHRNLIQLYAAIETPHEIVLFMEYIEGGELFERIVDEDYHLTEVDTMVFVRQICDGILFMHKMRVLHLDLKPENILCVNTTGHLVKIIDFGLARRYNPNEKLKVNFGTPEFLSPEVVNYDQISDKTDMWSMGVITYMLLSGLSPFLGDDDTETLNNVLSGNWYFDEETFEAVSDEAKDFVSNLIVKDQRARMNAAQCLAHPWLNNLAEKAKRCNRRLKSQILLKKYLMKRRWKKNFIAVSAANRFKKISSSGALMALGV
UniProt P41240, whole entry, stated change not applied: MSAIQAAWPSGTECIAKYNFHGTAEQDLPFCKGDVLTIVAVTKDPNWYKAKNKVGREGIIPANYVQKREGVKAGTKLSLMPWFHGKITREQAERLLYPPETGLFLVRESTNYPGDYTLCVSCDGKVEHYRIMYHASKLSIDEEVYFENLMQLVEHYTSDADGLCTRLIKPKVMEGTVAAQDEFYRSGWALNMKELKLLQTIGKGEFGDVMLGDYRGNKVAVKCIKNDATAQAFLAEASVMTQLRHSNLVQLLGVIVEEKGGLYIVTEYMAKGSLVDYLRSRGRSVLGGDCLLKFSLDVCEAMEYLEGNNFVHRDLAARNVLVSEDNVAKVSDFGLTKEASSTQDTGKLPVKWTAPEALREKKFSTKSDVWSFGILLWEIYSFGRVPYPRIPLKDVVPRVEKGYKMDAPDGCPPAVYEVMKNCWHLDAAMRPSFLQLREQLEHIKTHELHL

Assays:
Assay in all cases: Kinase profiling in a biochemical assay panel (mobility shift assays and ELISA), %-inhibition at 1 μM; selectivity entropy
[1] = molecular target: panel of more than 300 wild-type and mutant kinases (313 kinase panel) (Homo sapiens, UniProt P28482)
[2] = molecular target: T1, panel of more than 300 wild-type and mutant kinases (313 kinase panel) (Homo sapiens, UniProt Q13043)
T1 sequence (Q13043 1-487): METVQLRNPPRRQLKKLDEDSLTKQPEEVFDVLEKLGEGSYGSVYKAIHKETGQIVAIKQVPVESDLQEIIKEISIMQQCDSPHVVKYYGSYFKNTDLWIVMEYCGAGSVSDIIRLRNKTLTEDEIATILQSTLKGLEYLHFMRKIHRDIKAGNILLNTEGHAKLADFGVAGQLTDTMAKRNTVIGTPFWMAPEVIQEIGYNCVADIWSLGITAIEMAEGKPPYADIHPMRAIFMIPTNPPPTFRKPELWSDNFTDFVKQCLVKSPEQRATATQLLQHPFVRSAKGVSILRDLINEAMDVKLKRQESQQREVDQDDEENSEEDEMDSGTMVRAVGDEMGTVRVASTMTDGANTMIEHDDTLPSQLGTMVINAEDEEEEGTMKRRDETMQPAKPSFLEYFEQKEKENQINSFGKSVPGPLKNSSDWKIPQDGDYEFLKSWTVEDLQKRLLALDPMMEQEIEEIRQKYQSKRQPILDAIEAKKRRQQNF

[3] = molecular target: T2, panel of more than 300 wild-type and mutant kinases (313 kinase panel) (Homo sapiens, UniProt O14965)
T2 sequence (O14965 1-403): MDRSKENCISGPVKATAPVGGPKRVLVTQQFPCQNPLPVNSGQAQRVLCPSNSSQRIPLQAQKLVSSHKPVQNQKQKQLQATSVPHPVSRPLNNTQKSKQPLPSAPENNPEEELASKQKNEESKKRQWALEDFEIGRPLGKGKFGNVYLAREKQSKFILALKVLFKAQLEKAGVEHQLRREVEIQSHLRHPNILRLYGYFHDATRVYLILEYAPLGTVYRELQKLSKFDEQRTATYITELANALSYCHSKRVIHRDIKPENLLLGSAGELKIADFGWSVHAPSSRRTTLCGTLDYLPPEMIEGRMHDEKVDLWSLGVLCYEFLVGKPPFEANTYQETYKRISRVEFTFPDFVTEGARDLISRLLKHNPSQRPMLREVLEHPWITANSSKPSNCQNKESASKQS

[4] = molecular target: panel of more than 300 wild-type and mutant kinases (313 kinase panel) (Homo sapiens, UniProt Q9H1R3)
[5] = molecular target: T3, panel of more than 300 wild-type and mutant kinases (313 kinase panel) (Homo sapiens, UniProt Q9UF33)
T3 sequence (Q9UF33 23-1036): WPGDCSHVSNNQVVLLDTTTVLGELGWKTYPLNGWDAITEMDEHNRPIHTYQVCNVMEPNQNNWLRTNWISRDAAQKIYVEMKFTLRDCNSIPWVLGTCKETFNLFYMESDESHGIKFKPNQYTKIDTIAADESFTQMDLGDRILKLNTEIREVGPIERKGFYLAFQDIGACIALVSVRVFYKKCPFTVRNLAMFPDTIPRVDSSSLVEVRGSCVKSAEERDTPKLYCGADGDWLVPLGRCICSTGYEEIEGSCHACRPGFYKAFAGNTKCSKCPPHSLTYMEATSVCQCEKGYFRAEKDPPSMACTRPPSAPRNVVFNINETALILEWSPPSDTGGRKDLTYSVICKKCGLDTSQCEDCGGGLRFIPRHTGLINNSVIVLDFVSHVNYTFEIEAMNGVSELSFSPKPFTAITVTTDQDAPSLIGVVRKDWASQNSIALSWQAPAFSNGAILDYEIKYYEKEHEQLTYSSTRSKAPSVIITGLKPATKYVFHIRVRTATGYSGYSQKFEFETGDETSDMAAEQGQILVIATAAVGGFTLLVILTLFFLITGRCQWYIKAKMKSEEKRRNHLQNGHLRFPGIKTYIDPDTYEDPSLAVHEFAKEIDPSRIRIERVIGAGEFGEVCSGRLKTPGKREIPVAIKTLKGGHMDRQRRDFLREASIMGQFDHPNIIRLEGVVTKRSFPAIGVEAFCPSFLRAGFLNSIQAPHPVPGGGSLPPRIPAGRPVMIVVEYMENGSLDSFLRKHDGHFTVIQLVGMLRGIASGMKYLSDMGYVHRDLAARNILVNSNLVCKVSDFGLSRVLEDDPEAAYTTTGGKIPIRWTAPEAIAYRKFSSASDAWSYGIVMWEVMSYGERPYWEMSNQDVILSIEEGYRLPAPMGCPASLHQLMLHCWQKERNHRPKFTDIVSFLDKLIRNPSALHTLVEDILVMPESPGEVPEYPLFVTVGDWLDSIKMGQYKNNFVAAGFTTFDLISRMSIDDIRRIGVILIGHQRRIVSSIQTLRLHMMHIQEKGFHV

[6] = molecular target: T4, panel of more than 300 wild-type and mutant kinases (313 kinase panel) (Homo sapiens, UniProt Q9HC98)
T4 sequence (Q9HC98 1-313): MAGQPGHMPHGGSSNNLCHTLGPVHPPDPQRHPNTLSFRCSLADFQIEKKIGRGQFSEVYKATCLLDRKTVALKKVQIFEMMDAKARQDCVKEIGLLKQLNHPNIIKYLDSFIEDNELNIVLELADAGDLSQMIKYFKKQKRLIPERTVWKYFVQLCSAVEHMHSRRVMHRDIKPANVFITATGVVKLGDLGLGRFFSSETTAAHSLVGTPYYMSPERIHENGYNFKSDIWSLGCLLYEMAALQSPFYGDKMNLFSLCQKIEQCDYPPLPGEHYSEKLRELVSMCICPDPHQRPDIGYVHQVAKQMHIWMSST

[7] = molecular target: panel of more than 300 wild-type and mutant kinases (313 kinase panel) (Homo sapiens, UniProt P41240)

SMILES: CNC(=O)c1ccccc1Sc1ccc2c(/C=C/c3ccccn3)n[nH]c2c1 [axitinib]
- %-inhibition of Erk2 ([1]; kinase Erk2, compound at 1 μM): -7.44%
- %-inhibition of MST1 ([2]; kinase MST1, 1 μM): 77%
- %-inhibition, AurA/TPX2 ([3]; 1 µM): 101%
- %-inhibition, AurA ([3]; kinase AurA, 1 μM compound): 100%
- %-inhibition of skMLCK ([4]; kinase skMLCK, 1 μM): 5.34%
- %-inhibition of EPHA6 ([5]; kinase EPHA6, compound at 1 μM): 51%
- %-inhibition of NEK6 ([6]; kinase NEK6, 1 μM): -5.49%
- %-inhibition of CSK ([7]; kinase CSK, compound at 1 μM): 15%

SMILES: COc1cc2ncnc(Nc3ccc(F)c(Cl)c3)c2cc1OCCCN1CCOCC1 [gefitinib]
- %-inhibition of Erk2 ([1]; 1 µM): -6%
- %-inhibition of MST1 ([2]; 1 µM): -3%
- %-inhibition, AurA ([3]; 1 µM): 9%
- %-inhibition, AurA/TPX2 ([3]; 1 µM): -7%
- %-inhibition of skMLCK ([4]; 1 µM): 21%
- %-inhibition of EPHA6 ([5]; 1 µM): 85%
- %-inhibition of NEK6 ([6]; 1 µM): 2.37%
- %-inhibition of CSK ([7]; 1 µM): 13%

SMILES: C[C@@H]1CCN(C(=O)CC#N)C[C@@H]1N(C)c1ncnc2[nH]ccc12 [tofacitinib]
- %-inhibition of Erk2 ([1]; 1 µM): -6%
- %-inhibition of MST1 ([2]; 1 µM): 3.72%
- %-inhibition, AurA ([3]; 1 µM): 6%
- %-inhibition, AurA/TPX2 ([3]; 1 µM): 58%
- %-inhibition of skMLCK ([4]; 1 µM): -1.88%
- %-inhibition of EPHA6 ([5]; 1 µM): -1.06%
- %-inhibition of NEK6 ([6]; 1 µM): -1.14%
- %-inhibition of CSK ([7]; 1 µM): 1%
